Ab-95 light chain CDR variants: yeast mating affinities

The measurements come from Engelhart et al. 2022 (doi:10.1038/s41597-022-01779-4) through the FLAb antibody collection.

Binding partner: SARS-CoV-2 spike HR2 peptide, sequence PDVDLGDISGINAS.

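The library (AAYL52) carries one to three amino acid substitutions per variant, with no insertions or deletions. AlphaSeq pools MATa yeast showing the antibodies with MATalpha yeast showing the peptide. Pairs that bind mate more often; barcode pairs of the diploids are counted by sequencing. The ratio of observed to expected reads was calibrated, replicate by replicate, on BCL2-family standards whose Kd was known from biolayer interferometry. The assay was run in three technical replicates.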

Parent scFv Ab-95: VH joined to VL by three GGGGS repeats. Changes lie in the light chain CDRs alone.
VH: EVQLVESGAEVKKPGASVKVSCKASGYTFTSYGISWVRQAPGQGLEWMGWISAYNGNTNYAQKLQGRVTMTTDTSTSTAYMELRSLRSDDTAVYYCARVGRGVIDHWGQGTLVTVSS
VL: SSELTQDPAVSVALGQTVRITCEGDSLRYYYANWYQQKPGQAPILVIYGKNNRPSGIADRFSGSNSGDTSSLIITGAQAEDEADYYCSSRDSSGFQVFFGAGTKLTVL

Changes read parent residue, position, new residue, counted from the first residue of the VL shown. The read-out is the apparent dissociation constant on a log10 scale (nM): the lower, the stronger. A pair that was not seen in that replicate is written "n.d."; this usually means weak binding, but a binder can also be missed. For reference, the parent read 2.31 as the reference entry and 2.25 as a member of this library. Empty control strains, which show no peptide, gave a signal in 28% of pairings with library AAYL52; the median was 3.91 and 95% of these signals were weaker than 2.90. No background was subtracted. For each scFv, signals with the empty controls are counted beside the result, with their mean in brackets.

changes,log10 Kd (nM) by replicate,signal with controls
D25C/S26W/S93E,n.d. / 5.94 / 4.71,5 of 9 (4.52)
N33T/S93T/Q96K,4.29 / 3.04 / 3.51,2 of 9 (4.51)
D25M/L27D,3.95 / 2.92 / n.d.,2 of 9 (3.29)
N33K/R53T/F95G,2.78 / 3.08 / 3.35,3 of 9 (4.28)
D25C/L27V/K50N,2.96 / 3.51 / n.d.,3 of 9 (3.54)
N33I/S88Y/D91G,n.d. / 4.55 / 3.74,4 of 9 (3.93)
Y31S/A32P/F98A,1.87 / 1.83 / 1.29,1 of 9 (3.26)
Y29V/R53V/F98Q,2.37 / 2.93 / 3.51,2 of 9 (4.48)
N51W/P54G/V97N,5.45 / n.d. / n.d.,5 of 9 (3.98)
S26Q/K50Q/S92H,2.57 / 2.69 / 2.27,3 of 9 (4.46)
K50P,2.73 / 2.56 / 1.72,1 of 9 (2.46)
G24M/N52V/S92V,2.73 / 3.55 / 3.12,2 of 9 (3.84)
S26M/Y31I/R53K,4.74 / 3.68 / n.d.,5 of 9 (4.47)
Y29P/Y30H/N51R,3.60 / 2.71 / 3.31,6 of 9 (3.77)
G24H/K50Y,3.18 / 3.18 / 2.97,6 of 9 (4.07)
D25Y,2.77 / 3.17 / 3.21,4 of 9 (4.32)
E23R/N51Q/S55L,2.70 / 2.51 / 2.12,1 of 9 (3.86)
D25S/G49M/S92M,4.17 / 4.00 / n.d.,4 of 9 (3.74)
K50Q/R90S/F98S,3.07 / n.d. / n.d.,3 of 9 (3.80)
S26L/S92L/S93T,n.d. / n.d. / 3.95,2 of 9 (3.29)
K50L/N51D/P54D,4.44 / n.d. / n.d.,0 of 9
N33Q/P54Y/F98I,n.d. / n.d. / n.d.,0 of 9
N51Q/F95Y/F98S,2.97 / 2.73 / 2.72,4 of 9 (3.76)
Y30I/S88D/F95H,3.30 / 2.88 / 3.50,3 of 9 (4.48)
Y29S,1.59 / 1.43 / 1.13,5 of 9 (4.03)
Y31V/S92W/F95L,3.12 / 3.53 / 3.16,4 of 9 (4.60)
N51V/N52M/S92G,4.28 / n.d. / 3.91,5 of 9 (4.52)
D25A/Y29R/K50R,3.34 / 2.84 / 2.30,3 of 9 (3.93)
D25T/Y31D/R90F,1.15 / 1.04 / 0.60,4 of 9 (3.75)
K50M/N52C/V97G,n.d. / 4.00 / n.d.,2 of 9 (3.90)
G49A/S55W/S92Y,n.d. / 3.21 / n.d.,1 of 9 (3.80)
G24C/G49A/F98H,3.46 / 4.16 / n.d.,3 of 9 (4.14)
Y29E/N52R/F98Q,4.00 / 3.20 / n.d.,3 of 9 (3.22)
N33Q/R90V/F98G,n.d. / n.d. / n.d.,3 of 9 (3.69)
N51F/S92Y/F98K,4.00 / n.d. / n.d.,1 of 9 (3.81)
G49W/S89L/R90L,n.d. / n.d. / n.d.,1 of 9 (3.89)
S26R/Y29S/S92W,n.d. / 3.40 / 4.04,3 of 9 (3.76)
Y31S/S93W/V97S,2.85 / 3.22 / 2.37,7 of 9 (3.92)

The first 3 entries again:

changes,log10 Kd (nM) by replicate,signal with controls
D25C/S26W/S93E,n.d. / 5.94 / 4.71,5 of 9 (4.52)
N33T/S93T/Q96K,4.29 / 3.04 / 3.51,2 of 9 (4.51)
D25M/L27D,3.95 / 2.92 / n.d.,2 of 9 (3.29)